Source: US10131657B2, “Bromodomain inhibitors” (AbbVie Inc., priority 2013, dated 2018)

Tested on: breast cancer cell line MX-1
Experiment: MX-1 cell line proliferation assay, Method A
Assay type: cell-based
Details: Homo sapiens, MX1; MX-1 cells, 96-well, 72 hours, Cell Titer Glo; read-out: Cellular proliferation: EC50 Method A
Experimental: The impact of compounds of the Examples on cancer cell proliferation was determined using the breast cancer cell line MX-1 (ATCC) in a 3-day proliferation assay and the data are reported in Table 1.
MX-1 cells were maintained in RPMI 1640 medium (Sigma) supplemented with 10% FBS at 37° C. and an atmosphere of 5% CO2. For compound testing, MX-1 cells were plated in 96-well black bottom plates at a density of 5000 cells/well in 90 μL of culture media and incubated at 370 overnight to allow cell adhesion and spreading. Compound dilution series were prepared in DMSO via a 3-fold serial dilution from 3 mM to 0.1 μM. The DMSO dilution series were then diluted 1:100 in phosphate buffered saline, and 10 μL of the resulted solution were added to the appropriate wells of the MX-1 cell plate. The final compound concentrations in the wells were 3, 1, 0.3, 0.1, 0.03, 0.01, 0.003, 0.001, 0.0003 and 0.0001 μM.
Luminescence readings from the Cell Titer Glo assay were normalized to the DMSO treated cells and analyzed using the GraphPad Prism software with sigmoidal curve fitting to obtain ECs50s. The minimum significant ratio (MSR) was determined to evaluate assay reproducibility (Eastwood et al., (2006) J Biomol Screen, 11: 253-261). The overall MSR was determined to be 2.1 and a moving MSR (last six run MSR overtime) has been <2.

Row | SMILES | EC50
1 | CCS(=O)(=O)c1ccc(OCC2CC2(F)F)c(-c2cn(C)c(=O)c3[nH]c(C#CCN(C)C)cc23)c1 (centres unmarked) [Example 63, 4-{2-[(2,2-difluorocyclopropyl)methoxy]-5-(ethylsulfonyl)phenyl}-2-[3-(dimethylamino)prop-1-yn-1-yl]-6-methyl-1,6-dihydro-7H-pyrrolo[2,3-c]pyridin-7-one] | 9.4 nM
2 | CC(=O)Nc1ccc(CNc2cccc(Oc3ccc(S(C)(=O)=O)cc3-c3cn(C)c(=O)c4[nH]ccc34)c2)cc1 [Example 78, N-{4-[({3-[2-(6-methyl-7-oxo-6,7-dihydro-1H-pyrrolo[2,3-c]pyridin-4-yl)-4-(methylsulfonyl)phenoxy]phenyl}amino)methyl]phenyl}acetamide] | 14 nM
